Common to all, as to assay type: functional, organism-based
What all share (design): scale not given: the % may be the effect or the level left
Settings in all cases: time 5.0 day

Chains of the proteins cited; added tags and fusions are not shown. Lines headed by an entry give the natural chain unless they say otherwise; changes in a name come on top.
UniProt P28776: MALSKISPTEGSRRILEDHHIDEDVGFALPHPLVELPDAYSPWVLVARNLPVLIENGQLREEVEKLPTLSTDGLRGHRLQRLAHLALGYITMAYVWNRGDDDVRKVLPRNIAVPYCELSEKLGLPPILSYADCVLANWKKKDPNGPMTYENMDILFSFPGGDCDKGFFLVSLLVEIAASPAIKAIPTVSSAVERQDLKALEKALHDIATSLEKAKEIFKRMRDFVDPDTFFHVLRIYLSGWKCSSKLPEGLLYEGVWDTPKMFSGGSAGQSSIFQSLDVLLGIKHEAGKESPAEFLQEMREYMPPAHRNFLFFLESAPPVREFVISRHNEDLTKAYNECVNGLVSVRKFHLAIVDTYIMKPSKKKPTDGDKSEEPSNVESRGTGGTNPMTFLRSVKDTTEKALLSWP

The target in experiment [1] is Indoleamine 2,3-dioxygenase 1 (Mus musculus) (UniProt P28776). In words: In vivo inhibition of IDO1 in mouse xenografted with human SK-OV-3 cells assessed as reduction in tumor kynurenine AUEC at 120 mg/kg, po QD for 5 days measured up to 24 hrs after dosing relative to control.
Experiment [2] has the same target. The experiment is described as follows: In vivo inhibition of IDO1 in mouse xenografted with human SK-OV-3 cells assessed as reduction in tumor kynurenine AUEC at 180 mg/kg, po QD for 5 days measured up to 24 hrs after dosing relative to control.
Experiment [3] has the same target. The experiment is described as follows: In vivo inhibition of IDO1 in mouse xenografted with human SK-OV-3 cells assessed as reduction in tumor kynurenine AUEC at 20 mg/kg, po QD for 5 days measured up to 24 hrs after dosing relative to control.

We go through one compound from ChEMBL document CHEMBL4823289, “Conformational-Analysis-Guided Discovery of 2,3-Disubstituted Pyridine IDO1 Inhibitors” (ACS Med Chem Lett, 2021).

Take `CC[C@@H](NC(=O)c1ccc(OC)nc1)[C@H]1CC[C@@H](c2ccnc(OC)c2C(F)F)CC1`: the values for the Activity in experiment [1], in experiment [2] and in experiment [3] were 63%, 80% and 58%, respectively.
